# Target: EBP (Homo sapiens, UniProt Q15125)
# Protein sequences, listed by entry. Tags and fused reporters are not part of them.
# UniProt Q15125, whole entry: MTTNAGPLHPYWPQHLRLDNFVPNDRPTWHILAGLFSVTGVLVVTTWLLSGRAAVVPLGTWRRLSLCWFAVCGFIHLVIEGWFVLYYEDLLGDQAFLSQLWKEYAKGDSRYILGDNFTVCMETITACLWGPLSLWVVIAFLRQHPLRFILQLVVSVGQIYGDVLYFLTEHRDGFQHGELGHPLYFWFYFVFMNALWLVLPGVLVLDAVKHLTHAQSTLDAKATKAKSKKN
# Assay: EBP Functional Assay (EBP immunoaffinity LC-MS assay)
# Details: read-out: EBP Functional Assay; EBP enzyme from HEK293T cells; 30 min with inhibitor, then zymosterol-d5, 37° C., 4 h; percent conversion to dehydrolathosterol-d5 by LC-APCI MRM MS
# Method: The EBP immunoaffinity (IA) LC-MS assay measures the potency of small molecule inhibitors of EBP by quantifying their concentration-dependent changes in the enzyme's substrate and product using liquid chromatography atmospheric pressure chemical ionization multiple reaction monitoring mass spectrometry (LC-APCI MRM MS). HEK293T cells were utilized as the source of EBP enzyme. The enzyme was incubated with the small molecule inhibitors at variable concentrations for 30 min. Deuterated form of EBP substrate, zymosterol-d5 (Avanti Polar Lipids, Cat #700068P-1 mg), was then added and the plate was incubated at 37° C. for 4 h. Finally, the sterol isomers were extracted and injected to LC-APCI MRM MS. MRM transition used for the quantification for both zymosterol and […] (substrate and product of EBP enzymatic reaction, respectively) is 372.3-203.2, CE 30 and DP 80 in positive ion mode. Percent conversion of the zymosterol-d5 to dehydrolathosterol-d5 was used to derive IC50 curves. Tasin-1 (1′-[(4-Methoxyphenyl)sulfonyl]-4-methyl-1,4′-bipiperidine, CAS 792927-06-1) was used as the reference small molecule inhibitor.
# Percent conversion versus the compound concentration data were fit to the following 4-parameter logistic model to generate IC50 curves: […]
structure (smiles),measurement,value
"Cc1nc(C(F)(F)F)ccc1S(=O)(=O)N1CC2(CN(C3CCOC(C)C3)C2)C1 (single isomer, unassigned)",IC50,< 100 nM

# From US20250171463A1 (BIOGEN MA INC., priority 2022, published 2025)
